Results taken from patent US20180280542A1, “PORTABLE BIOLU[…] AND METHODS FOR IN VIVO MONITORING OF MOLECULAR AND METABOLIC EVENTS IN ANIMALS” (Ecole Polytechnique Fédérale de Lausanne (EPFL), priority 2017, published 2018).
Read-outs that look alike come from different tables or passages of the source.

Sequences of proteins named here, by UniProt entry; tags and fusion partners are left off. A change or cut given only in a name is not applied to a line headed by its entry.
UniProt P28843: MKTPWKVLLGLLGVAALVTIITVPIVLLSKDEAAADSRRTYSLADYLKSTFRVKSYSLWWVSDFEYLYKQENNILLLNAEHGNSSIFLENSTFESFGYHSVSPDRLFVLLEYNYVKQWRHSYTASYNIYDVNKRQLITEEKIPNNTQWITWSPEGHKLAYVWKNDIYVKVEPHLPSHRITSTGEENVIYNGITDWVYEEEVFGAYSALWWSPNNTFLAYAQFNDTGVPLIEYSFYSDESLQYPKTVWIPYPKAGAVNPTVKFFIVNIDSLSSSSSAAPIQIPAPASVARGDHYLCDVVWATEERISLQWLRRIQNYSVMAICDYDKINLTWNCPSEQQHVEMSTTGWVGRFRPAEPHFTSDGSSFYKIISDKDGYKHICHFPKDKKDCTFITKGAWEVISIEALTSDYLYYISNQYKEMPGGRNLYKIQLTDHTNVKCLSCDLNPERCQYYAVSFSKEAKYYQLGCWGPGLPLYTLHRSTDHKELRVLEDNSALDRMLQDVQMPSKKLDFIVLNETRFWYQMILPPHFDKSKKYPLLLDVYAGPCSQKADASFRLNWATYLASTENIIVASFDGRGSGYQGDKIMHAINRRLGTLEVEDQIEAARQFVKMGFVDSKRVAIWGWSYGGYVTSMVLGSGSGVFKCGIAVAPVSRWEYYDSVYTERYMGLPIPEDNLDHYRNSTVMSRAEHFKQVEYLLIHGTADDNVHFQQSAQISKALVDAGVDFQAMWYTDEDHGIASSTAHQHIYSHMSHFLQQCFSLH

Target: dipeptidyl peptidase-4 (DPP4) (Mus musculus, UniProt P28843)
Details: wild type nude mice with luciferase matrigel plug, DPP4 caged luciferin probe

bioluminescent signal from inhibitor treated animals as compared to animals treated with PBS (times lower) (signal recorded with IVIS system (FIG. 6A)): approximately 10 times | bioluminescent signal from inhibitor treated animals as compared to animals treated with PBS (times lower) (signal recorded with portable sensor microsystem (FIG. 6B)): approximately 10 times
SMILES: N[C@@H](CC(=O)N1CCn2c(nnc2C(F)(F)F)C1)Cc1cc(F)c(F)cc1F [sitagliptin]
